## Ab-95 light chain CDR variants: yeast mating affinities

Binding partner: SARS-CoV-2 spike HR2 peptide, sequence PDVDLGDISGINAS.

Parent scFv Ab-95: VH joined to VL by a (GGGGS)3 linker. Changes lie in the light chain CDRs alone.
VH: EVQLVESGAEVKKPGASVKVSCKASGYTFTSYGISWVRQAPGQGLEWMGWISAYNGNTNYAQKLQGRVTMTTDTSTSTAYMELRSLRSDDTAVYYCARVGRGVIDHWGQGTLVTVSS
VL: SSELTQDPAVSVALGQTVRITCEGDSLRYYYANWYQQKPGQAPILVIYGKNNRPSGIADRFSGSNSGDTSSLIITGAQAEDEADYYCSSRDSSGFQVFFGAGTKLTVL

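The parent was found by panning a naive human phage display library on the peptide. Variants in AAYL52 differ from the parent at up to three CDR positions; double and triple changes were sampled at random. Affinity was read by AlphaSeq, a pooled yeast mating assay with surface-displayed partners. Pairs that bind mate more often; barcode pairs of the diploids are counted by sequencing. The ratio of observed to expected reads was calibrated, replicate by replicate, on BCL2-family standards whose Kd was known from biolayer interferometry. There are three technical replicates.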

Each variant's VL is given in full.
All variants listed here change A32 of the VL, counted from its first residue.
Each Kd is an estimate from the mating assay, the geometric mean of the replicates in which the pair was seen; lower is stronger.
"no signal" marks a missing value. The strain was present, yet no cells mated with the target were sequenced in any replicate, which points to weak or no binding.
Three control strains display no target. For library AAYL52, 28% of the pairings with them gave a signal, with a median of 8.2 µM and one signal in twenty below 800 nM, so weak values seen in few replicates may be background.
In this assay the parent's reference entry averaged 200 nM; its copy inside this library read 180 nM.

Variant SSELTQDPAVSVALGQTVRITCEGDSLRMYYKNWYQQKPGQAPILVIYGINNRPSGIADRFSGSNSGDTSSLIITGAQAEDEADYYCSSRDSSGFQVFFGAGTKLTVL gave 130 µM (2 of 3 replicates). With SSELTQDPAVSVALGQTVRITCEGDSLRYYYNNWYQQKPGQAPILVIYGKNNRPSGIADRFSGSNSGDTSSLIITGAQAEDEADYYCLSPDSSGFQVFFGAGTKLTVL the result was 4.6 µM (2 of 3 replicates). With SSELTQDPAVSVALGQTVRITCEGDSLRYHYSNWYQQKPGQAPILVIYGKNNRPSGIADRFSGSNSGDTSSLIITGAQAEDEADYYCSSRDSSGFQVFFGAGTKLTVL the result was 38 nM (3 of 3 replicates). Variant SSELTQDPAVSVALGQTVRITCEGDSLRYYYHNWYQQKPGQAPILVIYGKNNRPSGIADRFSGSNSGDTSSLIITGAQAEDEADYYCSYRDSSGFQIFFGAGTKLTVL gave 990 nM (3 of 3 replicates). Variant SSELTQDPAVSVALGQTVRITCEGDSLRYYYDNWYQQKPGQAPILVIYQKNNAPSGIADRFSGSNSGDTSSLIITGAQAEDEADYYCSSRDSSGFQVFFGAGTKLTVL gave 1.6 µM (3 of 3 replicates). For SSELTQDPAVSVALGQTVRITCEGDSLRYYYKNWYQQKPGQAPILVIYGKNNFPSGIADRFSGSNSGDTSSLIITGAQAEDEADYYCSSRDSSGSQVFFGAGTKLTVL, the assay gave 6.5 µM (1 of 3 replicates).

Variant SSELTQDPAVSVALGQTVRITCEGDSLRYYYHNWYQQKPGQAPILVIYRKNNRPSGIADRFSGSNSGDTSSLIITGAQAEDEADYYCSSRDSSGFQVFFGAGTKLTVL showed no signal (0 of 3 replicates). Variant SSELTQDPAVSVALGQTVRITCEGDSLRYYYGNWYQQKPGQAPILVIYGRNNRPSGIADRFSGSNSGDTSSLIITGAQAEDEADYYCSSRDLSGFQVFFGAGTKLTVL showed no signal (0 of 3 replicates). Variant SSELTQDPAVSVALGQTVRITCENDSLRYGYFNWYQQKPGQAPILVIYGKNNRPSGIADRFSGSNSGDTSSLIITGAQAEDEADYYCSSRDSSGFQVFFGAGTKLTVL gave 3.2 µM (3 of 3 replicates). For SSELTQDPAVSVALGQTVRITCEGDSLRYYYLNWYQQKPGQAPILVIYGKNNRPSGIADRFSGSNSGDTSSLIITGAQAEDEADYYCSSRRSSGFQRFFGAGTKLTVL, the assay gave 51 µM (1 of 3 replicates). For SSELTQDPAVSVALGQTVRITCEGDSLRYYYSNWYQQKPGQAPILVIYGKRNRTSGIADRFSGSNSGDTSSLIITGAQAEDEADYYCSSRDSSGFQVFFGAGTKLTVL, the assay gave 2.6 µM (2 of 3 replicates). For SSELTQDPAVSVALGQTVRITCEGDSLRYYYRNWYQQKPGQAPILVIYGKNNRDSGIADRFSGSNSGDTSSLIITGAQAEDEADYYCSSMDSSGFQVFFGAGTKLTVL, the assay gave 10 µM (2 of 3 replicates).

Variant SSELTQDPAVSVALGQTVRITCEGDSLRYYYQNWYQQKPGQAPILVIYGKENRPSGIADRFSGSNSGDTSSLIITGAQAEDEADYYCSSRDSSGFVVFFGAGTKLTVL showed 22 µM (2 of 3 replicates). Variant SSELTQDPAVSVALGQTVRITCEEYSLRYYYINWYQQKPGQAPILVIYGKNNRPSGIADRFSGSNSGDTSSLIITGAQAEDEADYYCSSRDSSGFQVFFGAGTKLTVL showed 130 µM (1 of 3 replicates). Variant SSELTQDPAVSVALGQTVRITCEGDSLRYYYTNWYQQKPGQAPILVIYRKNNRPQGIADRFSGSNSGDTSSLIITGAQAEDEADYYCSSRDSSGFQVFFGAGTKLTVL showed 6.0 µM (1 of 3 replicates). For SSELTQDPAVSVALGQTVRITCEGDMLRYYYYNWYQQKPGQAPILVIYGKNNRPSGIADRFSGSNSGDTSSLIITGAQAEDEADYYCSSRDSFGFQVFFGAGTKLTVL, the assay gave 130 µM (2 of 3 replicates). For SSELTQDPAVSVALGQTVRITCEGISLRYYYKNWYQQKPGQAPILVIYHKNNRPSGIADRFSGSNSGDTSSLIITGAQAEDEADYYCSSRDSSGFQVFFGAGTKLTVL, the assay gave 19 µM (1 of 3 replicates).

The first 2 variants above that were never detected:

| VL | apparent Kd | seen in |
|---|---|---|
| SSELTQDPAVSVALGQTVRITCEGDSLRYYYHNWYQQKPGQAPILVIYRKNNRPSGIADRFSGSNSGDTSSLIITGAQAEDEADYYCSSRDSSGFQVFFGAGTKLTVL | no signal | 0 of 3 |
| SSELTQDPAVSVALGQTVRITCEGDSLRYYYGNWYQQKPGQAPILVIYGRNNRPSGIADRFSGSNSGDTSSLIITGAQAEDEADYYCSSRDLSGFQVFFGAGTKLTVL | no signal | 0 of 3 |

Values reported by Engelhart et al. 2022, doi:10.1038/s41597-022-01779-4 (FLAb copy).